Assay results published in PubChem BioAssay AID652104 (National Center for Advancing Translational Sciences (NCATS), 2013).
The list shows a part of the results, in another mix than the full data. Results filed as inconclusive are left out. Some salts or complexes appear as unconnected parts, following the source record. Activity calls are given as the source filed them. The call rests on the fitted dose curve; in most records, active means well fitted activation curve with a large enough effect; inconclusive means small, poorly fitted or top-dose-only effect, or another doubt; inactive means no such curve, though single readings can be large or run the other way.

Assay: qHTS of TDP-43 Inhibitors; further: % of control where 0% means no effect; nearly all actives have a fitted effect of over 50% in size
Settings: TDP-43 expressing yeast growth rescue, BacTiter-Glo, 24 h; at 46.1 µM (top of the series) unless noted
In the case of O=c1[nH]c2ccccc2n1C1CCN(C(c2ccnc3ccccc23)c2nnnn2C2CCCC2)CC1 (stereo unspecified), the growth rescue (activation) is reported as inactive: 0%.
In the case of CCOC(=O)N1CCC(Nc2ccc(C)cc2)CC1, the growth rescue (activation) is reported as inactive: 20.5%.
With COc1cccc(C(c2nnnn2C(C)(C)C)N2CCC(n3c(=O)[nH]c4ccccc43)CC2)c1OC (stereo unspecified) the growth rescue (activation) was inactive: 21.4%.
In the case of N/C(=N\O)c1c(N)no[n+]1[O-], the growth rescue (activation) is reported as inactive: -55.9%.
In the case of CCc1cc(C(=O)NCC2(N3CCCCC3)CCCCC2)sc1C, the growth rescue (activation) is reported as inactive: -4.76%.
For O=C(OC1CN2CCC1CC2)C1c2ccccc2C=Cc2ccccc21 (stereo unspecified), the growth rescue (activation) was inactive: 16.2%.
With O=C(O)c1cccc(Nc2c([N+](=O)[O-])cc([N+](=O)[O-])cc2[N+](=O)[O-])c1 the growth rescue (activation) was inactive: 23.6%.
With O=c1[nH]c2ccccc2n1C1CCN(C(c2cccs2)c2nnnn2C2CCCC2)CC1 (stereo unspecified) the growth rescue (activation) was inactive: 34.2%.
For CCCCn1nnnc1C(c1cccc(OC)c1OC)N1CCC(n2c(=O)[nH]c3ccccc32)CC1 (stereo unspecified), the growth rescue (activation) was inactive: 12.2%.
With CC(C)c1ccc(NC2CCN(C(=O)OC(C)(C)C)CC2)cc1 the growth rescue (activation) was inactive: -18.8%.
With CCCCn1nnnc1C(c1ccccc1OC(F)(F)F)N1CCC(n2c(=O)[nH]c3ccccc32)CC1 (stereo unspecified) the growth rescue (activation) was inactive: 25.2%.
In the case of O=[N+]([O-])c1cc([N+](=O)[O-])c(OC2CCCCC2O)c([N+](=O)[O-])c1 (stereo unspecified), the growth rescue (activation) is reported as inactive: -13.9%.
For CN(C)c1cccc(C(=O)NCC2(N3CCCCC3)CCCCC2)c1, the growth rescue (activation) was inactive: -13%.
For COc1cc(OC)c(C(=O)NCC2(N(C)C)CCCCC2)cc1OC, the growth rescue (activation) was inactive: -3.29%.
For O=C(NCC1(N2CCOCC2)CCCCC1)c1cc(F)c(F)cc1Cl, the growth rescue (activation) was inactive: 11.4%.
In the case of CCC(c1nnnn1C(C)(C)C)N1CCC(n2c(=O)[nH]c3ccccc32)CC1 (stereo unspecified), the growth rescue (activation) is reported as inactive: -0.318%.
With CCCCn1nnnc1C(c1ccnc2ccccc12)N1CCC(n2c(=O)[nH]c3ccccc32)CC1 (stereo unspecified) the growth rescue (activation) was inactive: 12.4%.
With O=C(OC1CN2CCC1CC2)c1ccc([N+](=O)[O-])cc1 (stereo unspecified) the growth rescue (activation) was inactive: -6.85%.
For CN1CCC(Nc2cccc(F)c2)CC1, the growth rescue (activation) was inactive: 4.81%.
In the case of COc1ccc2c(c1O)-c1c(O)c(OC)cc3c1[C@H](C2)[N+](C)(C)CC3.O=[N+]([O-])c1cc([N+](=O)[O-])c([O-])c([N+](=O)[O-])c1[O-], the growth rescue (activation) is reported as inactive: 21.9%.
For O=C(NCC1(N2CCCCC2)CCCCC1)c1cncc(Br)c1, the growth rescue (activation) was inactive: -17.7%.
With O=[N+]([O-])c1cc([N+](=O)[O-])c(Nc2ccc(Cl)cc2)c([N+](=O)[O-])c1 the growth rescue (activation) was inactive: -90.5%.
With COc1ccc(C(c2nnnn2C2CCCC2)N2CCC(n3c(=O)[nH]c4ccccc43)CC2)cc1 (stereo unspecified) the growth rescue (activation) was inactive: 27.2%.
For CCCCOc1ccccc1C(=O)NCC1(N2CCOCC2)CCCCC1, the growth rescue (activation) was inactive: 5.03%.
With Cc1ccc(C(=O)NCC2(N(C)C)CCCCC2)o1 the growth rescue (activation) was inactive: 12.5%.
With O=C(NCC1(N2CCOCC2)CCCCC1)c1ccccc1Br the growth rescue (activation) was inactive: 11.1%.
For CCCOc1ccc(C(=O)NCC2(N(C)C)CCCCC2)cc1OC, the growth rescue (activation) was inactive: -4.22%.
For O=C(NCC1(N2CCCCC2)CCCCC1)c1ccc(OC(F)F)cc1, the growth rescue (activation) was inactive: 24.2%.
With CCN1CCC(Nc2ccc(Cl)cc2)CC1 the growth rescue (activation) was inactive: 15.7%.
For O=c1[nH]c2ccccc2n1C1CCN(C(c2ccccc2OC(F)(F)F)c2nnnn2C2CCCC2)CC1 (stereo unspecified), the growth rescue (activation) was inactive: -5.79%.
With N#CC1(Nc2ccccc2)CCN(CCc2ccccc2)CC1 the growth rescue (activation) was inactive: -8.79%.
In the case of CSc1ccc(C(=O)NCC2(N3CCOCC3)CCCCC2)cc1, the growth rescue (activation) is reported as inactive: 5.54%.
For O=C(NCC1(N2CCCCC2)CCCCC1)c1cccc([N+](=O)[O-])c1, the growth rescue (activation) was inactive: 18.1%.
In the case of CCOc1ccc(C(=O)NCC2(N3CCOCC3)CCCCC2)cc1, the growth rescue (activation) is reported as inactive: 14%.
With O=[N+]([O-])c1cc([N+](=O)[O-])c(NCC2CCS(=O)(=O)C2)c([N+](=O)[O-])c1 (stereo unspecified) the growth rescue (activation) was inactive: 12.3%.
With CCCOc1cccc(C(=O)NCC2(N3CCOCC3)CCCCC2)c1 the growth rescue (activation) was inactive: 2.71%.
In the case of O=C(NCC1(N2CCCCC2)CCCCC1)c1cccc(C(F)(F)F)c1, the growth rescue (activation) is reported as inactive: -15.2%.
In the case of COc1cc(C(=O)NCC2(N3CCCCC3)CCCCC2)ccc1OC(F)F, the growth rescue (activation) is reported as inactive: 14.2%.
For O=C(NCC1(N2CCOCC2)CCCCC1)c1cc(=O)[nH]c2ccccc12, the growth rescue (activation) was inactive: -3.41%.
With CN1CCN(CCOC(=O)C(O)(c2ccccc2)c2ccccc2)CC1 the growth rescue (activation) was inactive: -18.6%.
With CC(C)c1ccc(C(=O)NCC2(N3CCOCC3)CCCCC2)cc1 the growth rescue (activation) was inactive: 3.77%.
For COc1ccc(NC2CCN(C(=O)OC(C)(C)C)CC2)cc1, the growth rescue (activation) was inactive: -3.33%.
For CC(C)(C)n1nnnc1C(c1ccccc1)N1CCC(n2c(=O)[nH]c3ccccc32)CC1 (stereo unspecified), the growth rescue (activation) was inactive: 20.8%.
For O=C(NCC1(N2CCOCC2)CCCCC1)c1ccc(Cl)cc1, the growth rescue (activation) was inactive: -9.98%.
In the case of O=C1CCN(Cc2ccccc2)CC1, the growth rescue (activation) is reported as inactive: -5.86%.
For CCOc1ccc(C)cc1CN(CCCl)CCCl, the growth rescue (activation) was inactive: -7.41%.
